According to ChEMBL document CHEMBL3232832, “Derivatives of dibenzothiophene for positron emission tomography imaging of α7-nicotinic acetylcholine receptors” (J Med Chem, 2013):

Tested on: Nucleic Acid
Assay: Ratio of drug uptake in cortex to cerebellum in monkey
Settings: rhesus monkey, in vivo

For `[11CH3]Nc1cccc(C(=O)O[C@H]2CN3CCC2CC3)c1`, the Ratio was 0.4.
